The list shows a part of the results, in another mix than the full data. Some tests of the compounds listed are not included; inactive here does not mean inactive elsewhere. Records with an inconclusive call do not appear. Active and inactive are the calls of the source. Calls follow the shape of the dose curve; as a rule, active = well fitted inhibition curve with a large enough effect; inconclusive = small, poorly fitted or top-dose-only effect; inactive = no such curve, though single readings can be large or run the other way.
Each compound was assayed against 3-hydroxyacyl-CoA dehydrogenase type-2 (Homo sapiens) (UniProt Q99714) (assay: qHTS Assay for Inhibitors of HADH2 (Hydroxyacyl-Coenzyme A Dehydrogenase, Type II)). Conditions: recombinant HADH2, NADH fluorescence, beta-hydroxybutyryl-CoA; at 11.4 µM (top of the series) unless noted.
% is scaled to controls: 0 for no effect and ±100 for the full control effect.
Also: nearly all actives have a fitted effect of over 60% in size.

The chains behind the UniProt entries cited, without tags or fusion partners.
UniProt Q99714, whole entry: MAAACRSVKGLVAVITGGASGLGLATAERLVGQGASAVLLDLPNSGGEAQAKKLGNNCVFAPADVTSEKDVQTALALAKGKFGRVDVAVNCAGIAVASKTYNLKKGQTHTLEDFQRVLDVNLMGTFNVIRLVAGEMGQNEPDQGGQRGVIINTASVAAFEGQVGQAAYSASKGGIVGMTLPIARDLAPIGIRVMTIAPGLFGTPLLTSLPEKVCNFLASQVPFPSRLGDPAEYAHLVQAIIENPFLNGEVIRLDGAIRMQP

SMILES | activity change, negative = inhibition
CN(C)c1cccc(C(=O)NCC2(N(C)C)CCCCC2)c1 | inactive: -6.36% [at 57.1 µM]
CN1CCC[C@H](OC(=O)[C@](O)(c2ccccc2)C2CCCC2)C1 | inactive: 9.3%
O=C(OC1CN2CCC1CC2)C(CO)(c1ccccc1)c1ccccc1 (stereo not given) | inactive: 0.813% [at 57.1 µM]
CN1CC[C@H](OC(=O)[C@](O)(c2ccccc2)C2CCCC2)C1 | inactive: 10.1%
C=C(C)C#C[C@@](O)(C(=O)OC1CCN(C)CC1)c1ccccc1 | inactive: 12%

From PubChem BioAssay AID886 (National Center for Advancing Translational Sciences (NCATS), 2007)
